# Source: US20090170131A1, “Agents for Imaging Apoptosis” (priority 2006, published 2009)
# Biological target: T1, caspase-3 (Homo sapiens, UniProt P42574)
# T1 construct: In DLD1 colon carcinoma cells in vitro; endogenous in cells; host or cells: DLD1 colon carcinoma cells
# T1 sequence (P42574 29-175 limits assumed): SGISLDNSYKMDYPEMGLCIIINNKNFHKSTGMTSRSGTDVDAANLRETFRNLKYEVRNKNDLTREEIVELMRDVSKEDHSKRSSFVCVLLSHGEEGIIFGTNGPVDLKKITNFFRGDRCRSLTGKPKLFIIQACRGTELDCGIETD
# T1 sequence (P42574 176-277 limits assumed): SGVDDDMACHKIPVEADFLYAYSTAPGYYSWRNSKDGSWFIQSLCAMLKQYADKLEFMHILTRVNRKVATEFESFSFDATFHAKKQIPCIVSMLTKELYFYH
# Assay: AMC-M808 cleavage in DLD1 colon carcinoma cells after TRAIL treatment, time-lapse confocal fluorescence
# Type: cell-based
# Conditions: DLD1 cells preincubated with 50 μM inhibitor for 1 hour before TRAIL
# Description: FIG. 1 is an image of AMC fluorescence from an imaging agent in DLD1 colon carcinoma cells before (A) and after 2 hour treatment with TNF-related apoptosis-inducing ligand (TRAIL) (B).
# The increase in fluorescence due to AMC-M808 cleavage during the first hour following TRAIL treatment was determined to proceed at rate of 5.5 min^−1.
# DLD1 cells were seeded in an 8-chamber glass slide at a density of 2×10^4 cells/cm^2 in DMEM containing 10% FBS and allowed to attach overnight. Fluorescent images of the plated cells were acquired using an Olympus FV1000 confocal microscope equipped with an onstage incubation chamber. TRAIL was added to the cells in a 0.5 mL volume of fresh medium at a concentration of 50 ng/mL. Time-lapse microscopy was then immediately initiated with confocal images acquired at a rate of one image every 10 minutes. The cells were maintained at 37° C. in 5% CO2 for the duration of the experiment. […] Fluorescence intensity over time was measured in a representative region-of-interest in each 10-minute image acquired to determine the rate of caspase activity. […] The rate of cleavage following TRAIL addition was fast and fluorescence intensity in the apoptotic cell population increased over time at a rate of 5.5 min^−1 indicating accumulation and retention of the cleaved substrate (FIG. 2).
substance,measurement,value
DEVD-CHO [reference compound],increase in fluorescence intensity of AMC-M808 in the presence of the inhibitor,no net increase
